# Source: article PMC12102759 (Protein Science : A Publication of the Protein Society, 2025)
# Protein sequences, listed by entry. Tags and fused reporters are not part of them. Residues count along the entry.
# UniProt Q9Y490, 309-401: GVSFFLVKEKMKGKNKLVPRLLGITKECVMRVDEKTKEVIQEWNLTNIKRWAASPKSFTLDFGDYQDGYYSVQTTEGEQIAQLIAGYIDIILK
# Molecular target: TLN1 PTB (Homo sapiens, UniProt Q9Y490)
# Assay type: binding
row,Sequence,DMS-derived PSSM value of the single-substitution variant
1,TDERSWVYSPLHYSAQ W6R (TDERSRVYSPLHYSAQ),0.01647
2,TDERSWVYSPLHYSAQ W6S (TDERSSVYSPLHYSAQ),0
3,TDERSWVYSPLHYSAQ W6T (TDERSTVYSPLHYSAQ),0.004443
4,TDERSWVYSPLHYSAQ W6V (TDERSVVYSPLHYSAQ),0.01735
5,TDERSWVYSPLHYSAQ W6W,0.8573
6,TDERSWVYSPLHYSAQ W6Y (TDERSYVYSPLHYSAQ),0.004839
7,TDERSWVYSPLHYSAQ Y8A (TDERSWVASPLHYSAQ),0.01629
8,TDERSWVYSPLHYSAQ Y8D (TDERSWVDSPLHYSAQ),0.02077
9,TDERSWVYSPLHYSAQ Y8E (TDERSWVESPLHYSAQ),0.01953
10,TDERSWVYSPLHYSAQ Y8F (TDERSWVFSPLHYSAQ),0.05295
11,TDERSWVYSPLHYSAQ Y8G (TDERSWVGSPLHYSAQ),0.004462
12,TDERSWVYSPLHYSAQ Y8H (TDERSWVHSPLHYSAQ),0.116
13,TDERSWVYSPLHYSAQ Y8I (TDERSWVISPLHYSAQ),0.01435
14,TDERSWVYSPLHYSAQ Y8K (TDERSWVKSPLHYSAQ),0.01029
15,TDERSWVYSPLHYSAQ Y8L (TDERSWVLSPLHYSAQ),0.1253
16,TDERSWVYSPLHYSAQ Y8M (TDERSWVMSPLHYSAQ),0.03539
17,TDERSWVYSPLHYSAQ Y8N (TDERSWVNSPLHYSAQ),0.07629
18,TDERSWVYSPLHYSAQ Y8P (TDERSWVPSPLHYSAQ),0.006785
19,TDERSWVYSPLHYSAQ Y8Q (TDERSWVQSPLHYSAQ),0.01205

row,Sequence,DMS-derived PSSM value of the single-substitution variant
1,TDERSWVYSPLHYSAQ Y8R (TDERSWVRSPLHYSAQ),0.1517
2,TDERSWVYSPLHYSAQ Y8S (TDERSWVSSPLHYSAQ),0.01037
3,TDERSWVYSPLHYSAQ Y8T (TDERSWVTSPLHYSAQ),0.1176
4,TDERSWVYSPLHYSAQ Y8V (TDERSWVVSPLHYSAQ),0.09843
5,TDERSWVYSPLHYSAQ Y8W (TDERSWVWSPLHYSAQ),0.03901
6,TDERSWVYSPLHYSAQ Y8Y,0.07238
7,TDERSWVYSPLHYSAQ Y13A (TDERSWVYSPLHASAQ),0.0133
8,TDERSWVYSPLHYSAQ Y13D (TDERSWVYSPLHDSAQ),0.241
9,TDERSWVYSPLHYSAQ Y13E (TDERSWVYSPLHESAQ),0.009966
10,TDERSWVYSPLHYSAQ Y13F (TDERSWVYSPLHFSAQ),0.05082
11,TDERSWVYSPLHYSAQ Y13G (TDERSWVYSPLHGSAQ),0.009966
12,TDERSWVYSPLHYSAQ Y13H (TDERSWVYSPLHHSAQ),0.008357
13,TDERSWVYSPLHYSAQ Y13I (TDERSWVYSPLHISAQ),0.1432
14,TDERSWVYSPLHYSAQ Y13K (TDERSWVYSPLHKSAQ),0.01075
15,TDERSWVYSPLHYSAQ Y13L (TDERSWVYSPLHLSAQ),0.03195
16,TDERSWVYSPLHYSAQ Y13M (TDERSWVYSPLHMSAQ),0.022
17,TDERSWVYSPLHYSAQ Y13N (TDERSWVYSPLHNSAQ),0.07672
18,TDERSWVYSPLHYSAQ Y13P (TDERSWVYSPLHPSAQ),0.02173
